# Reference: PubChem BioAssay AID651800 (The Scripps Research Institute Molecular Screening Center, 2012)
# Only a part is listed here, and it is no random draw. Active and inactive are the calls of the source. No stated cut-off is given here; in the data, active means inhibition above about 19%; inactive means the rest.
# Test system: T-cell receptor (TCR)
# Assay: small molecules blocking TCR binding to CD3 – biochemical, fluorescence, TAMRA-labeled TCR probe, primary screen (AID 651800);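 further: recombinant mutant TCR 2C K166C tagged with TAMRA read by polarization; 0% = receptor in buffer alone and 100% = receptor with positive control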
# Conditions: at 9.4 µM, hits give high values
row,Structure (SMILES),inhibition
1,Cc1cccc(C)c1OP(C)(=O)Nc1ccc(SC(F)(F)F)cc1 (stereo not given),inactive: -1.48%
2,CP(=O)(Nc1ccc(SC(F)(F)F)cc1)Oc1ccc(Cl)cc1 (stereo not given),inactive: -4.83%
3,Cc1cc(C)cc(OP(C)(=O)Nc2ccc(SC(F)(F)F)cc2)c1 (stereo not given),inactive: 2.52%
4,CCc1ccc(OP(C)(=O)N2CCN(c3ccc([N+](=O)[O-])cc3)CC2)cc1 (stereo not given),inactive: -5.4%
5,CP(=O)(NC(=O)Nc1ccccc1)Oc1ccccc1 (stereo not given),inactive: 3.12%
6,CCOP(C)(=S)SCC(=O)NC(C)C(=O)O (stereo not given),inactive: 1.24%
7,CCOC(=O)c1ccc(NP(C)(=O)Oc2ccc(OC)cc2)cc1 (stereo not given),inactive: 5.9%
8,O=[N+]([O-])c1cc([N+](=O)[O-])c(O)c([N+](=O)[O-])c1.c1ccc(Oc2ccncc2)cc1,inactive: -8.57%
9,CP(=O)(Nc1ccccn1)Oc1ccc(Cl)cc1 (stereo not given),inactive: 0.49%
10,CCN(CC)CCCOC(=O)C(O)(c1ccccc1)c1ccccc1,inactive: -1.89%
11,COc1ccccc1-c1ccccn1.O=[N+]([O-])c1cc([N+](=O)[O-])c(O)c([N+](=O)[O-])c1,inactive: -0.99%
12,O=[N+]([O-])c1cc([N+](=O)[O-])c(Nc2cccnc2)c([N+](=O)[O-])c1,inactive: 1.43%
13,Cc1cccc(C)c1OP(C)(N)=O (stereo not given),inactive: -1.68%
14,CC(C)(C)c1ccc(OP(C)(=O)Nc2ccc(SC(F)(F)F)cc2)cc1 (stereo not given),inactive: -0.02%
15,O=[N+]([O-])c1ccc2c(c1)C=Nc1ccccc1O2,inactive: -1.04%
16,CCOC(=O)c1ccc(NP(C)(=O)Oc2ccccc2)cc1 (stereo not given),inactive: -11.2%
17,Cc1ccc(NP(C)(=O)Oc2ccccc2)c(C)c1 (stereo not given),inactive: -3.39%
18,COc1ccccc1OP(C)(=O)Nc1ccc(C)cc1 (stereo not given),inactive: -2.3%
19,COc1ccc(OP(C)(=O)Nc2cccc(F)c2)cc1 (stereo not given),inactive: 2.04%
20,COc1ccccc1OP(C)(=O)Nc1cc(Cl)ccc1C (stereo not given),inactive: 7.29%

row,Structure (SMILES),inhibition
1,Cc1cc(C)cc(OP(C)(N)=O)c1 (stereo not given),inactive: -3.66%
2,O=C(O)c1cccc(Nc2c([N+](=O)[O-])cc([N+](=O)[O-])cc2[N+](=O)[O-])c1,inactive: 8.34%
3,CC1=NCCc2c1[nH]c1ccccc21.O=[N+]([O-])c1cc([N+](=O)[O-])c(O)c([N+](=O)[O-])c1,inactive: -9.09%
4,COc1ccccc1OP(C)(=O)Nc1cccc(Br)c1 (stereo not given),inactive: -13%
5,Cc1cc(C)cc(OP(C)(=O)Nc2ccc(C)cc2C)c1 (stereo not given),inactive: 1.05%
6,CCOC(=O)c1ccc(NP(C)(=O)Oc2cc(C)cc(C)c2)cc1 (stereo not given),inactive: -4.95%
7,CP(=O)(Nc1cccc(Br)c1)Oc1ccccc1 (stereo not given),inactive: 4.09%
8,Cc1cc(C)cc(OP(C)(=O)Nc2ccccn2)c1 (stereo not given),inactive: -5.59%
9,Cc1ccc(C)c(NP(C)(=O)Oc2ccccc2)c1 (stereo not given),inactive: 0.65%
10,O=[N+]([O-])c1cc([N+](=O)[O-])c(-n2nnc3ccccc32)c([N+](=O)[O-])c1,inactive: -4.39%
11,CN(Cc1cccnc1)C(=O)COc1ccc(Cl)c(Cl)c1.O=[N+]([O-])c1cc([N+](=O)[O-])c(O)c([N+](=O)[O-])c1,inactive: -10.2%
12,O=[N+]([O-])c1cc([N+](=O)[O-])c(-c2cnn(-c3ccccc3)c2)c([N+](=O)[O-])c1,inactive: -9.14%
13,Cc1nc2ccc3ccccc3c2s1.O=[N+]([O-])c1cc([N+](=O)[O-])c(O)c([N+](=O)[O-])c1,inactive: -8%
14,CCOC(=O)C(CC)C1=NC(C)(C)Cc2ccccc21.O=[N+]([O-])c1cc([N+](=O)[O-])c(O)c([N+](=O)[O-])c1 (stereo not given),inactive: 3.3%
15,O=[N+]([O-])c1cc([N+](=O)[O-])c(Nc2nnnn2CCO)c([N+](=O)[O-])c1,inactive: 9.73%
16,COc1ccccc1OP(C)(=O)Nc1c(C)cccc1C (stereo not given),inactive: 9.09%
17,CN1CCCCC1COC(=O)C1(O)c2ccccc2CCc2ccccc21 (stereo not given),inactive: 4.4%
18,CP(=O)(Nc1ccc(SC(F)(F)F)cc1)Oc1ccccc1 (stereo not given),inactive: 6.44%
19,CCCOc1ccc(NP(C)(=O)Oc2ccc(Cl)cc2)cc1 (stereo not given),inactive: -1.77%
20,COc1ccc(-c2ccccn2)cc1.O=[N+]([O-])c1cc([N+](=O)[O-])c(O)c([N+](=O)[O-])c1,inactive: 2.36%
